# Test results as given in patent US7671056B2, “Piperazine-piperidine antagonists and agonists of the 5-HT1A receptor” (Wyeth LLC, priority 2005, dated 2010).
# Tested on: Male Long-Evans hooded rats
# Experiment: Synergy with acetylcholinesterase inhibitor Aricept in Novel Object Recognition Model
# Assay type: in vivo, rat
# Conditions: Aricept 0.5 mg/kg i.p. alone (sub-threshold), P<0.05
smiles,measurement,value
"COc1cc2c(cc1OC)C(=O)C(CC1CCN(Cc3ccccc3)CC1)C2 (stereo not shown) [Aricept®, donepezil]","contact times in familiar and novel environments, administered separately",not statistically different
